The test has as its system MeV IC323-eGFP. Briefly: Nebulized peptide in MeV-infected cynomolgus macaques. The following applies: 3 ml of 4 mg/ml nebulized 24 h and 6 h before and 24 h after 10^4 PFU intra-tracheal; 3 animals/group; blue light.

With `CC[C@H](C)[C@H](NC(=O)[C@H](C)NC(=O)[C@H](CC(N)=O)NC(=O)CNC(=O)[C@H](CC(C)C)NC(=O)[C@H](CC(N)=O)NC(=O)[C@@H](NC(=O)CNC(=O)[C@@H](NC(=O)[C@H](CC(=O)O)NC(=O)[C@H](CC(C)C)NC(=O)[C@H](CCCNC(=N)N)NC(=O)[C@H](CCC(=O)O)NC(=O)[C@H](CC(C)C)NC(=O)[C@H](CO)NC(=O)[C@@H](NC(=O)[C@@H]1CCCN1C(=O)[C@@H]1CCCN1)[C@@H](C)CC)C(C)C)[C@@H](C)O)C(=O)N[C@@H](C)C(=O)N[C@@H](CCCCN)C(=O)N[C@@H](CC(C)C)C(=O)N[C@@H](CCC(=O)O)C(=O)N[C@@H](CC(=O)O)C(=O)N[C@@H](C)C(=O)N[C@@H](CCCCN)C(=O)N[C@@H](CCC(=O)O)C(=O)N[C@@H](CC(C)C)C(=O)N[C@@H](CC(C)C)C(=O)N[C@@H](CCC(=O)O)C(=O)N[C@@H](CO)C(=O)N[C@@H](CO)C(=O)N[C@@H](CC(=O)O)C(=O)N[C@@H](CCC(N)=O)C(=O)N[C@H](C(=O)N[C@@H](CC(C)C)C(=O)N[C@@H](CCCNC(=N)N)C(=O)NCC(=O)N[C@@H](CO)C(=O)NCC(=O)N[C@@H](CO)C(=O)NCC(=O)N[C@@H](CSC1CC(=O)N(CCCC(=O)NCCOCCOCCOCCOCCC(=O)NCCN(CCNC(=O)CCOCCOCCOCCOCCNC(=O)CCCN2C(=O)CC(SC[C@H](NC(=O)CNC(=O)[C@H](CO)NC(=O)CNC(=O)[C@H](CO)NC(=O)CNC(=O)[C@H](CCCNC(=N)N)NC(=O)[C@H](CC(C)C)NC(=O)[C@@H](NC(=O)[C@H](CCC(N)=O)NC(=O)[C@H](CC(=O)O)NC(=O)[C@H](CO)NC(=O)[C@H](CO)NC(=O)[C@H](CCC(=O)O)NC(=O)[C@H](CC(C)C)NC(=O)[C@H](CC(C)C)NC(=O)[C@H](CCC(=O)O)NC(=O)[C@H](CCCCN)NC(=O)[C@H](C)NC(=O)[C@H](CC(=O)O)NC(=O)[C@H](CCC(=O)O)NC(=O)[C@H](CC(C)C)NC(=O)[C@H](CCCCN)NC(=O)[C@H](C)NC(=O)[C@@H](NC(=O)[C@H](C)NC(=O)[C@H](CC(N)=O)NC(=O)CNC(=O)[C@H](CC(C)C)NC(=O)[C@H](CC(N)=O)NC(=O)[C@@H](NC(=O)CNC(=O)[C@@H](NC(=O)[C@H](CC(=O)O)NC(=O)[C@H](CC(C)C)NC(=O)[C@H](CCCNC(=N)N)NC(=O)[C@H](CCC(=O)O)NC(=O)[C@H](CC(C)C)NC(=O)[C@H](CO)NC(=O)[C@@H](NC(=O)[C@@H]3CCCN3C(=O)[C@@H]3CCCN3)[C@@H](C)CC)C(C)C)[C@@H](C)O)[C@@H](C)CC)[C@@H](C)CC)C(=O)O)C2=O)CCO[C@H]2CC[C@@]3(C)C(=CC[C@H]4[C@@H]5CC[C@H]([C@H](C)CCCC(C)C)[C@@]5(C)CC[C@@H]43)C2)C1=O)C(=O)O)[C@@H](C)CC` (stereo partly shown) [HRC4], the GFP-fluorescent rash entry is “no HRC4-treated animals, had a GFP-fluorescent rash”.

The values are drawn from paper PMC9176655, “Nebulized fusion inhibitory peptide protects cynomolgus macaques from measles virus infection” (Research Square, 2022).
